Chains of the proteins cited; added tags and fusions are not shown.
Polyadenylate-binding protein 1 (Homo sapiens), P11940, UniProt P11940, whole entry, looked up: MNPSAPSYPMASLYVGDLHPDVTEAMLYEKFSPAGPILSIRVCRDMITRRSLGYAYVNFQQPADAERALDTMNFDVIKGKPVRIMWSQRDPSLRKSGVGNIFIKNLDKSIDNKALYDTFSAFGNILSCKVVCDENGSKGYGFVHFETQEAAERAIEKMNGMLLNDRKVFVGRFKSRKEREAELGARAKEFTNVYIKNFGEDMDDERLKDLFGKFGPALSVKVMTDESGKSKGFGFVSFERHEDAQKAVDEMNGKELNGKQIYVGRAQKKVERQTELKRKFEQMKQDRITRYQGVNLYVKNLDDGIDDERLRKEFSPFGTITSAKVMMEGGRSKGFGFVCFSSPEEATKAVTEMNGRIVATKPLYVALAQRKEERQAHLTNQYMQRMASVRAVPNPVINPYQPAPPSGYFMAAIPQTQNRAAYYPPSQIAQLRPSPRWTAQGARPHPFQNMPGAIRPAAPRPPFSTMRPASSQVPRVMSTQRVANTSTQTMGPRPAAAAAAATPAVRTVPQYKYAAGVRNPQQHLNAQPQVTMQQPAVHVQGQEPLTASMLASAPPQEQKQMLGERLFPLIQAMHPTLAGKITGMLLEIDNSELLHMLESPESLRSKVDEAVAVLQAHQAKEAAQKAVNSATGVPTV

# A selection: hits, their analogues and other compounds. The true share with any hit is near 1.5%.
# Pemphigus Ab inh: inhibitors of pemphigus antibody binding to DSG3, primary screen, biochemical, bead-based, flow cytometry, scFv-GFP; DSG3-coupled beads, scFv-anti-DSG3-GFP binding; hits give low values; binding (percent of control), % at 10 µM; 310,000 tested, 0.48% active; AID 588358, 2011;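 active = binding more than 3 SD below its plate's average and above zero; inconclusive = below that plate limit but binding exactly zero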;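 also: hits lower antibody fragment binding to DSG3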
# UUG fidelity: alters start codon recognition fidelity in yeast | S. cerevisiae UUG-firefly luciferase reporter, luminescence/redox ratio | activity score, % at 18.7 µM | hit rate 0.13% among 350,000 | AID 602363;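 active means replicate mean at a twofold rise or more, about +100% in these data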;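 further: firefly luciferase made from a UUG start codon reports start codon fidelity; reporter light over untreated wells divided by growth signal over untreated wells; some hits fall short of that in this replicate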
# PABP polyA inh: PABP poly(A) RNA binding inhibitors, primary screen, biochemical, fluorescence polarization, uHTS; Polyadenylate-binding protein 1 (Homo sapiens), P11940; calls only at 35 µM; 290,000 tested, 1% active; AID 2014, 2009;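 also: calls also rest on retests at 20 µM and on dose response follow-up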
# MLLE-PAM2 inh: inhibitors of PABP1 MLLE–PAM2 peptide binding, primary screen, biochemical, fluorescence polarization, FITC-PAM2, GST-MLLE. inhibition, % at 20 µM. 360,000 tested, 0.36% active; in the data active = inhibition above about 35%, passing the limit was not always enough
# eIF4H inh: human eIF4H binding inhibitors, primary screen, translation initiation inhibitor project, biochemical, uHTS, fluorescence polarization; inhibition, % at 35 µM; AID 2012, 2009; Eukaryotic translation initiation factor 4H (Homo sapiens), Q15056; 290,000 tested, 0.94% active; eIF4H fluorescence polarization binding assay;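 also: calls also rest on retests at 20 µM and on dose response follow-up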
# Hits are given with their value; 0 = inactive; ? = inconclusive; - = not tested or not shown; + = active, no number. Unless noted, no rule for the calls is given here.
SMILES,Pemphigus Ab inh,UUG fidelity,PABP polyA inh,MLLE-PAM2 inh,eIF4H inh
Cc1ccc(OCC(=O)N2CCN(C(=O)c3cccs3)CC2)cc1,0,0,+,0,active
Fc1ccc(CSc2ccc(-c3ccco3)nn2)cc1,0,0,+,0,?
O=C(CSc1ccc(-c2ccco2)nn1)NCc1ccc(F)cc1,0,0,0,0,0
Fc1cccc(CSc2ccc(-c3ccco3)nn2)c1,0,0,0,0,0
O=C(CSc1ccc(-c2ccco2)nn1)c1ccc(F)cc1,0,0,+,0,0
Cc1ccc(-c2nnc(SCC(=O)Nc3sc(C)c(C)c3C#N)n2C)cc1,0,0,0,0,0
Cc1sc(NC(=O)CSc2nnc(-c3ccc(F)cc3)o2)c(C#N)c1C,-,0,+,0,66.3
Nc1c(C(=O)O)sc2nc(-c3ccc(F)cc3)cc(-c3ccccc3)c12,0,0,+,0,0
CCN(CC)c1ccc(N=Cc2ccccc2[N+](=O)[O-])cc1,0,0,0,0,0
CCN(CC)c1ccc(N=Cc2ccc([N+](=O)[O-])o2)cc1,0,-,+,0,71.5
CC(Sc1nnc(N)s1)C(=O)Nc1ccc2c(c1)OCO2 (configuration not stated),89.1,0,-,0,-
CC(Sc1nnc(N)s1)C(=O)NCc1ccc2c(c1)OCO2 (configuration not stated),0,0,-,0,-
C/C(=N\NC(=O)c1cc(C)nc2ccccc12)c1ccco1,0,0,0,0,0
C/C(=N\Nc1nc2ccccc2c(=O)n1O)c1ccco1,0,-,0,0,78.7
N#C/C(=N\Nc1cccc2ccccc12)c1nnc2n1CCCCC2,0,-,+,0,85.5
N#C/C(=C\c1c[nH]c2ccccc12)c1nnc2n1CCCCC2,0,0,0,0,0
O=C(NC1CC1)C1CCN(C2CCN(C(=O)Cc3ccc(F)cc3)CC2)CC1,0,0,0,0,0
Cn1ccc(CC(=O)N2CCC(N3CCC(C(=O)N4CCCC4)CC3)CC2)c1,0,0,+,0,51.9
Cc1cnc(C=NNC(N)=S)c2cccc(N)c12,0,-,-,42.7,-
C(=Nc1cccc2c(N=Cc3ccco3)cccc12)c1ccco1,0,-,0,66.7,?
C(=N\C(/N=C/c1ccco1)c1ccco1)/c1ccco1,0,0,+,0,102.7
COc1cccc(S(=O)(=O)N[C@H]2CC[C@H](CC(=O)NCc3ccc(Cl)cc3)O[C@@H]2CO)c1,-,0,-,-,-
Cc1ccc(S(=O)(=O)Nc2ccc3c(c2)C(=O)N([C@H](C)CO)C[C@@H](C)[C@@H](CN(C)Cc2ccccc2)OCCCC[C@@H](C)O3)cc1,-,0,-,-,-
CCOc1cc(/C=C2\C(=N)N3N=C(C)SC3=NC2=O)ccc1OCCOc1cccc(OC)c1,0,0,0,0,0
CCc1nn2c(=O)cc(COc3ccc(/C=C4\C(=N)N5N=C(C)SC5=NC4=O)cc3)nc2s1,0,0,+,0,70.3
SMILES,Pemphigus Ab inh,UUG fidelity,PABP polyA inh,MLLE-PAM2 inh,eIF4H inh
N#CCCN(C(=S)NC(=O)c1ccco1)c1ccccc1F,0,-,0,47.4,0
N#CCCN(Cc1cccnc1)C(=S)NC(=O)c1ccco1,0,-,+,0,0
N#CCCN(C(=O)c1ccco1)c1ccccc1,0,0,0,0,0
CCC(=O)Nc1ccc2c(c1)C(=O)N(C)[C@H]1CC[C@@H](CC(=O)NCCCN(C)C)O[C@H]1CO2,-,0,-,-,-
Cc1c(NC(=S)NC(=O)CSc2ccc(Cl)cc2)cccc1C(=O)O,0,0,0,40.5,0
CN1CCN(c2ccccc2NC(=S)NC(=O)c2cc3ccccc3o2)CC1,0,0,0,0,0
Cc1c(NC(=S)NC(=O)c2cc3ccccc3o2)cccc1C(=O)O,0,0,0,39.2,0
CN(Cc1cccnc1)Cc1c(C(=O)N2CCc3ccccc3C2)nc2ccc(Cl)cn12,0,-,+,0,0
C[C@@H]1CCCCO[C@@H](CN(C)S(=O)(=O)c2cccs2)[C@H](C)CN([C@H](C)CO)C(=O)c2cc(NS(=O)(=O)c3ccc(F)cc3)ccc2O1,-,0,-,-,-
Cc1noc(C)c1NC(=O)Nc1ccc2c(c1)C(=O)N(C)[C@H]1CC[C@H](CC(=O)Nc3ccccc3F)O[C@@H]1CO2,-,0,-,-,-
CN1c2ccc(-c3ccccc3F)cc2[C@@H]2[C@@H](CCN2C(=O)NC2CCCC2)[C@@H]1CO,-,0,-,-,-
C[C@H](CO)N1C[C@H](C)[C@H](CN(C)Cc2ccncc2)Oc2c(NS(=O)(=O)c3cccs3)cccc2C1=O,-,0,-,-,-
COc1ccc(N2CCN(S(=O)(=O)CCNC(=O)c3cc(=O)c4ccccc4o3)CC2)cc1,-12.3,0,0,0,0
O=C(C[C@@H]1C=C[C@H](NS(=O)(=O)c2cccc(F)c2)[C@@H](CO)O1)N1CCCCC1,-,0,-,-,-
CC(=O)C1=C(C)NC(SCC(=O)c2ccc(F)cc2)=C(C#N)C1c1ccco1 (configuration not stated),0,0,0,0,0
CC(=O)C1=C(C)NC(SCC(=O)c2ccc(Cl)c(Cl)c2)=C(C#N)C1c1ccco1 (configuration not stated),0,0,+,0,71.0
CCc1ccc(C(=O)CSC2=C(C#N)C(c3ccco3)C(C(C)=O)=C(C)N2)cc1 (configuration not stated),-,-,0,-,71.5
CC(=O)C1=C(C)NC(SCC(=O)c2cc(Cl)ccc2Cl)=C(C#N)C1c1ccco1 (configuration not stated),0,-,0,0,0
CCOC(=O)CSC1=C(C#N)C(c2ccccc2F)C(C(C)=O)=C(C)N1 (configuration not stated),0,0,?,0,50.4
CCOC(=O)CSC1=C(C#N)C(c2sccc2C)C(C(C)=O)=C(C)N1 (configuration not stated),0,-,0,0,0
CCOc1cc(NC(=O)c2cccs2)c(OCC)cc1NC(=O)c1ccccn1,0,-,0,0,0
CCOc1cc(NC(=O)c2ccccn2)c(OCC)cc1NC(=O)c1cccc(C)c1,74.3,0,0,0,0
CCCC(=O)Nc1ccc2c(c1)C(=O)N(C)[C@@H]1CC[C@H](CC(=O)NCC(F)(F)F)O[C@@H]1CO2,-,0,-,-,-
COc1ccc(-n2c(CN3CCC(C(N)=O)CC3)nc3ccc([N+](=O)[O-])cc3c2=O)c(OC)c1,0,-,0,0,active
CC(=O)C1=C(O)C(=O)N(CCC(=O)O)C1c1ccccc1[N+](=O)[O-] (configuration not stated),0,-,0,0,0
CC(=O)C1=C(O)C(=O)N(C)C1c1ccccc1[N+](=O)[O-] (configuration not stated),-,-,0,39.0,0
COc1ccc(Nc2nc3ccccc3nc2C)cc1,0,0,+,0,61.0
C[C@H]1CN([C@@H](C)CO)C(=O)c2cc(NS(C)(=O)=O)ccc2O[C@@H]1CN(C)Cc1ccc(Cl)c(Cl)c1,-,0,-,-,-
